Tests used:
[1] = target: FAAH (Homo sapiens, UniProt O00519); assay: Measurement of IC50 value of substance inhibiting FAAH activity using human bladder epithelial carcinoma-derived cell line 5637; assay type: cell-based; conditions: 5637 cells, radiolabeled anandamide substrate, 30 minutes at 37° C.; URB597 10 μM = 0%, DMSO = 100%
Description: Screening of Substance Inhibiting FAAH Activity by Using Human Bladder Epithelial Carcinoma-Derived Cell Line
(1) Screening of Substance Inhibiting FAAH Activity
Human bladder epithelial carcinoma-derived cell line, 5637 cells (HTB-9; ATCC) were seeded in a 48-well cell culture plate in an amount of 1×10^5 cells/well by using RPMI 1640 medium (Invitrogen) containing 10% fetal bovine serum (HyClone), followed by incubation at 37° C. for 12 hours or longer, and then the cells in each well were washed with 400 μl of a buffer (Hank's Balanced Salt Solution, 20 mM Hepes-NaOH (pH 7.4)). A test substance dissolved in DMSO was added to a substrate solution (the above buffer containing 3 μCi/ml radiolabeled anandamide (anandamide [ethanolamine 1-^3H]) and 10 μM anandamide) so as to have a concentration from 0.003 nM to 30 nM, and as a control, DMSO was added alone. 100 μl/well of the substrate solution was added to the cells, followed by incubation in a CO2 incubator at 37° C. for 30 minutes. Thereafter, the cell culture plate was transferred onto ice, the substrate solution was removed by suction, and 75 μl/well of a cytolytic solution that have been ice-cooled (the above buffer containing 0.5% TritonX-100 and 10 μM of a compound cyclohexylcarbamic acid 3′-carbamoylbiphenyl-3-yl ester (URB597; Cayman Chemical Company; Kathuria et al., Nature Med., Vol. 9, pp 76-81, 2003) having FAAH inhibitory activity) was added thereto, followed by stirring. The obtained cell lysate was transferred from each well to a sample tube having a volume of 1.5 ml, and 150 μl of a solution including chloroform and methanol at a ratio of 1:1 (volume ratio) was added thereto, followed by stirring. By centrifugation (15000 rpm for 2 minutes), the solution was divided into the upper layer (water/methanol layer) containing the decomposed product ethanolamine (ethanolamine 1-^3H) and the lower layer (chloroform layer) containing unreacted radiolabeled anandamide. […] A substance decreasing a measured value compared to the control was selected as a substance inhibiting FAAH activity. […]

Protein sequences, listed by entry. Tags and fused reporters are not part of them.
UniProt O00519, whole entry, looked up: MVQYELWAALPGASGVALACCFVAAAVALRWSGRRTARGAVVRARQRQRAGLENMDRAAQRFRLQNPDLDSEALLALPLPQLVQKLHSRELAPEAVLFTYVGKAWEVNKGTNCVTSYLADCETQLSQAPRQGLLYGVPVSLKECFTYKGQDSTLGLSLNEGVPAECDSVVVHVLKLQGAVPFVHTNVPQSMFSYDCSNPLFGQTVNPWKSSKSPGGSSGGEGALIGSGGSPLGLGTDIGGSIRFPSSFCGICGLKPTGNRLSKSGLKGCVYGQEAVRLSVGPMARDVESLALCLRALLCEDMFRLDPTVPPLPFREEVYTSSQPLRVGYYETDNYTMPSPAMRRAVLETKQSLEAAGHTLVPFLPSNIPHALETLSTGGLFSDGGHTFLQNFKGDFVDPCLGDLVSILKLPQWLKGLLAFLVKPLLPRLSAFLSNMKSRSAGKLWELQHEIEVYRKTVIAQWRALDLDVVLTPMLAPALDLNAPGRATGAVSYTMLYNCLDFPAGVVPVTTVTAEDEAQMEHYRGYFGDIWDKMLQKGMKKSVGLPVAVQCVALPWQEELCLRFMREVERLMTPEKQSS

[2] = test system: rat with cyclophosphamide (CPA)-induced urinary frequency; assay: Rat with cyclophosphamide (CPA)-induced urinary frequency, effective bladder capacity; conditions: female Wistar rats, two days after CPA 100 mg/kg i.p., urine measured for 1 hour
[3] = test system: rat model with bladder pain; assay: Rat model with bladder pain (cyclophosphamide pre-treated, bladder expansion); assay type: in vivo; conditions: male SD rats, 3 mg/5 ml/kg oral, change before vs after administration
Description: Action of Compound with Respect to Rat Model with Bladder Pain
The analgesic action of the compound against bladder pain was examined using a pathological model. Cyclophosphamide (150 mg/kg) was administered intraperitoneally, and after two days, physiological saline was injected under a non-restraint condition, at a rate of 45 ml/h via a cannula inserted transurethrally into the bladder, thereby rapidly expanding the bladder. Due to rapid expansion of the bladder, amplification of electromyogram spikes in external oblique abdominal muscle accompanying behavior relating to pain was confirmed. The injection amount at this point in time can be taken as a threshold of bladder pain, which makes it possible to evaluate drug efficacy with respect to the threshold of bladder pain. […] For the rats pre-treated with cyclophosphamide, the threshold of bladder pain before and after the administration of a test compound was measured, and the change in amount (Δ ml) was investigated. In order to obtain a value before administration, bladder expansion was performed until a stabilized threshold of bladder pain was consecutively obtained three times, and the average of the threshold of bladder pain of the final three times was taken as a measured value. […] The average of the threshold of bladder pain consecutively measured three times was taken as a value measured after administration.

[4] = test system: rat model with testis pain; assay: Rat model with testis pain (acetic acid into testes, writhing); assay type: in vivo; conditions: male Wistar rats, 3 mg/5 ml/kg oral, counted 5 to 15 minutes after acetic acid
Description: Action of Compound with Respect to Rat Model with Testis Pain
The analgesic action of the compound against testis pain was examined using a pathological model. If 1% acetic acid is administered at 1 ml/kg to right and left testes of a rat by using an injection needle, pain behavior (writhing) accompanied by testis pain is observed, which makes it possible to evaluate drug efficacy on the pain behavior. […] The rats were transferred to a cylindrical acryl cage having a diameter of 30 cm and a height of 50 cm, and the number of times of pain behavior shown for 5 minutes to 15 minutes after the acetic acid administration was measured.

Row | Structure (SMILES) | IC50 [1] [nM] | effective oral administration dose (increased the reduced effective bladder capacity and improved the urinary frequency) [2] [mg/kg] | also measured
1 | O=C(O)c1cncc(OC(=O)N2CCC(/C=C/c3ccccc3)CC2)c1 | 1.5 | 1 | 
2 | Cc1ccc(OC(=O)N2CCC(n3ccc(-c4ccccc4)n3)CC2)cn1 |  | 1 | Threshold of bladder pain (amount of physiological saline injected), compound-administered group ([3]; 120 minutes before measurement): 0.138 Δ ml; Number of times of pain behavior, compound-administered group ([4]; 120 minutes before measurement): 13.3
3 | NC(=O)c1cccc(CCC2CCN(C(=O)Oc3cncc(C(N)=O)c3)CC2)c1 |  | 1 | 
4 | COC(=O)c1cncc(OC(=O)N2CCN(CCc3ccccc3)CC2)c1 | 1.4 |  | 
5 | O=C(O)c1cncc(OC(=O)N2CCC(CCc3ccccc3)CC2)c1 |  | 1 | Threshold of bladder pain (amount of physiological saline injected), compound-administered group ([3]; 60 minutes before measurement): 0.145 Δ ml; Number of times of pain behavior, compound-administered group ([4]; 60 minutes before measurement): 10.4
6 | NC(=O)c1cncc(OC(=O)N2CCN(CCCCCc3ccccc3)CC2)c1 | 0.083 |  | 

From patent US20130030006A1, “AGENT FOR PREVENTING OR TREATING DISEASES ACCOMPANIED BY URINARY PAIN” (priority 2010, published 2013)
